These results are taken from US20240228542A1, “LYTIC DOMAIN FUSION CONSTRUCTS, CHECKPOINT INHIBITORS, AND METHODS OF MAKING AND USING SAME” (A28 Therapeutics Inc., priority 2020, published 2024).

One data set deals with EMT-6. The data set can be described thus: Cytotoxicity in EMT-6 murine breast cancer cells (CellTiter Glo). The data set is classed as cell-based. The procedure:
Exponentially growing murine cancer cell lines (EMT-6; a triple negative murine breast cancer cell line, passage 5) were obtained from Charles River, Wilmington MA and propagated from a frozen stock in Eagle's Minimum Essential Medium (EMEM) supplemented with 10% fetal bovine serum and 2 mM glutamine. 100 units/mL penicillin G sodium, 100 μg/mL streptomycin sulfate. 0.1 mM non-essential amino acids, and 25 μg/mL gentamicin. Cell cultures were maintained in tissue culture flasks in a humidified incubator at 37° C., in an atmosphere of 5% CO2 and 95% air. The cells were released using cell dissociation buffer and were seeded at a density of 2,000 cells/well into opaque 96 well plates and incubated in complete culture media for 24 hours.
Treatment was initiated by adding Phor18-LHRH (APC 338613, Lot #W01107C1) or
unconjugated Phor18 (APC 338983, SY09076C) at concentrations of 0.02, 0.06, 0.2, 0.6, 1.85, 5.5, 16.6, 50 and 100 μm in quadruplicates on two different plates (N=8). Controls were treated with USP saline or 0.1% TritonX-100™ as reference for 0 and 100% cell death, respectively. Cell viability was measured after 4 and 8 h of incubation in a cell viability assay (Promega, CellTiter Glo™, Promega # G7572, lot #326282). The in vitro toxicities as ICso values were determined using the GraphPad Prism version 5.00 for Windows, GraphPad Software, San Diego California USA.
A general note: In ATP-based viability assays light output follows the ATP content of the culture.

Another data set has as its system human RBC. The data set can be described thus: Acute hemolytic activity on human red blood cells. The settings on record: for HA50 (hemolytic activity): 0.5% human RBC, 2 h. It counts as cell-based. As for the experimental part:
Hemolytic activity was determined in 96 well plates using a serial dilution of peptides exposed to 0.5% human RBC. Controls were saline (no RBC death) or 0.1% Triton X 100 (100% RBC lysis). The peptide concentrations ranged from 0 to 100 μm. Incubations were conducted for 2 h.

For data set [1], the system named is murine ovarian cancer cells. Nature of the data set: EP-100 cytotoxicity and LHRH-R specificity in murine ovarian cancer cells. It counts as cell-based. Conditions: ID8 and IG10 cells, FIGS. 15D and 15E. From the text:
To identify the direct effects of EP-100 on cancer cells, murine ovarian cancer cell lines were used for in vitro experiments. […] The level of expression of LHRH-R in murine ovarian cancer cells using RT-PCR and Western blot analysis. […] Indeed, LHRH-R was expressed mainly on the membrane of cancer cells (FIGS. 14D and 14E). Human SKOV3ipl ovarian cancer cells and immortalized murine 3T3 fibroblasts were used as negative controls.
To determine whether the antitumor EP-100 efficacy was specific to LHRH-R expression, we silenced LHRH-R using siRNA (FIG. 15A). […].

Data set [2] deals with MDA-MB-435S.luc xenograft. Nature of the data set: MDA-MB-435S.luc xenograft, LHRH fusion constructs. Conditions: mouse, in vivo. Also on record: species or system Nu/Nu mice. The procedure:
For LHRH fusion constructs, the mouse xenograft model for breast cancer was used. In brief. Nu/Nu female mice, outbred strain, age 5 weeks (Charles River) were injected subcutaneously with a MDA-MB-435S.luc/Matrigel suspension (1×10^6 cells). Treatment was started on day 21 after tumor cell injection and continued on day 26 and 29. The doses for weekly fusion construct injections were 2, 0.2 and 0.02 mg/kg body weight, given as a bolus single injection. All mice were necropsied 34 days after tumor cell injection-baseline values for tumor weights were obtained by sacrificing 8 mice at treatment start. […] Tumor weights were recorded at necropsy, part of the tumors were frozen at −80 ° C. for luciferase assay determination.
Characteristics of tumors at necropsy are summarized in FIG. 10; (A) tumor weight, (B) changes of tumor weights compared to baseline, (C) total number of live tumor cells, (D) changes of total live tumor cells compared to baseline, and (E) bodyweights at baseline and necropsy. Viability of tumor cells was determined at the end of the study when tumors were measured for luciferase activity. Treatment efficacy was calculated as difference between measurements at the beginning of treatment compared to the measurement at the end of study (FIG. 10B and 10D).

In a further data set the test system is MDA-MB-435S xenograft. Nature of the data set: MDA-MB-435S xenograft, multiple dose regimen. It counts as in vivo, Nu/Nu mice. Conditions: entire study period. The procedure: In order to determine the minimal effective dose necessary to reduce MDA-MB-435S xenograft weights in a multiple dose regimen, Nu/Nu female mice, outbred strain, age 8 weeks (Charles River), were injected (s.c.) into the interscapular region with a MDA-MB-435S (passage # 253)/Matrigel suspension (2×10^6 cells/mouse) as previously described above. Phor 18-LHRH (338613) (ID: 338613 lot #P080401) (0.002, and 0.2 mg/kg) were reconstituted in USP saline prior to dosing. The doses were given as a single bolus intravenous injection via lateral tail vein on days 15, 16, 17, 20, 21, 22, 23, 27, 28, 29, 30, 33, 34, 35, 36, 37, 38, 40, 41, 42 after tumor cell inoculation. Saline injections served as control groups.
Each treatment group consisted of 16 mice. During the entire study tumor volumes were recorded twice weekly. Final necropsy was conducted on day 45 after tumor cell injection. […] due to occlusion of the tail vein in most mice. At study endpoint body weight, tumor weights were determined and fixed in phosphate buffered 10% formalin.

Data set [3] is described as follows: Maximum tolerated dose (MTD) and safety margin. Conditions: MTD in comparison with anti-tumor effective dose. It counts as in vivo. As for the experimental part:
The fusion conjugates have a high safety margin considering parameters such as hemolytic activity, maximum tolerated dose (MTD) (up to 16-25 mg/kg) in comparison with the anti-tumor effective dose (0.02 or 0.01 mg/kg). The safety margin for Phor21-βCG-ala is 16 whereas a value of 800 can be reached for Phor18-βCG-ala and Phor 18-LHRH. In comparison the safety margin for Phor 18-Lupron is only 8.

For another data set, the system named is OVCAR-3 xenograft. Nature of the data set: OVCAR-3 ovarian cancer xenograft. The data set is classed as in vivo, Nu/Nu mice. Conditions: 2 mg/kg dose; procedural and not related to treatment. As for the experimental part: The purpose of this xenograft study was to test Phor 18-LHRH (338613) in a ovarian cancer model, to determine if Phor18-LHRH (338613) is effective in vivo in multi-drug resistant, slow growing tumor models as single weekly injections. In brief, Nu/Nu female mice, inbred strain, age 5 weeks (Harlan-Sprague Dawley) were injected subcutaneously with a NIH:OVCAR-3 cells/Matrigel suspension (4.6×10^6 cells/mouse). Treatment was started on day 33 after tumor cell injection when the tumors were established and continued on days 41 and 47. […]
A group of 9 tumor bearing mice was sacrificed on day 33 and served as baseline group. […] Tumor volumes and bodyweights were recorded twice weekly during the study, as well as overall veterinarian examination of mice was conducted.
Primary tumors, liver, kidney, pancreas, heart, lung, and spleen were collected, fixed in formalin and prepared for histological evaluation. Tumor weights were measured at necropsy, part of the tumors were frozen at −80° C. for LH/CG and LHRH receptor assay determination.
As a biomarker for drug activity, CA 125 was determined in serum, collected from each individual mouse at necropsy using a Enzyme Linked Immunoassay for quantitative determination of ovarian cancer antigen CA125 (Assay kit Genway, Biotech, Inc. San Diego, CA, Catalog #40-052-115009, #BC-1013 according to the manufacturer). […]

In general, IC50 refers to the concentration that inhibits the measured activity by half. Low values mean greater potency in that assay, high ones weaker potency in that assay. In the case of “KFAKFAKKFAKFAKKFAK [Phor18, reference compound]”, the “IC50 (cytotoxicity)” value in the data set on EMT-6 (EMT-6, 4 h) is given as “Not toxic”. This sequence showed an IC50 with EMT-6 (EMT-6, 8 h) of 55.8 ± 1.6 µM. In addition, the “HA50 (hemolytic activity)” value with human RBC was “did not show any hemolytic activity”; in the data set with human RBC (listed as 338983), “Not lytic”. Further, the cytotoxic effect entry in data set [1] is “did not have cytotoxic effects”.
For the sequence “KFAKFAKKFAKFAKKFAKQHWSYGLRPG [Phor18-LHRH]”, the IC50 stood at 5.8 ± 0.2 µM in the data set with EMT-6 (EMT-6, 4 h) and 5.7 ± 0.1 µM with EMT-6 (EMT-6, 8 h). Besides, the “elevated potassium levels compared to saline controls” value in data set [2] came to 1.5 fold. Moreover, the “HA50 (hemolytic activity)” value in the data set with human RBC (listed as 338613) came to 297.9 ± 35 µM. The “Hemolytic Activity [μM] (HA50)” value with human RBC (Table 4 summary) is 297 µM. Further, the bodyweights result with MDA-MB-435S xenograft is “not affected by treatment”. Further, the safety margin in data set [3] was determined as 800. Besides, the death on injection entry in the data set on OVCAR-3 xenograft was “One mouse died during the first injection”.
